Measured values as given in patent publication US6034108A, “Method for treating mental retardation” (Eli Lilly and Company, priority 1998, dated 2000).

Protein sequences, listed by entry. Tags and fused reporters are not part of them. Lines headed by an entry give the natural chain unless they say otherwise; changes in a name come on top.
UniProt P08482: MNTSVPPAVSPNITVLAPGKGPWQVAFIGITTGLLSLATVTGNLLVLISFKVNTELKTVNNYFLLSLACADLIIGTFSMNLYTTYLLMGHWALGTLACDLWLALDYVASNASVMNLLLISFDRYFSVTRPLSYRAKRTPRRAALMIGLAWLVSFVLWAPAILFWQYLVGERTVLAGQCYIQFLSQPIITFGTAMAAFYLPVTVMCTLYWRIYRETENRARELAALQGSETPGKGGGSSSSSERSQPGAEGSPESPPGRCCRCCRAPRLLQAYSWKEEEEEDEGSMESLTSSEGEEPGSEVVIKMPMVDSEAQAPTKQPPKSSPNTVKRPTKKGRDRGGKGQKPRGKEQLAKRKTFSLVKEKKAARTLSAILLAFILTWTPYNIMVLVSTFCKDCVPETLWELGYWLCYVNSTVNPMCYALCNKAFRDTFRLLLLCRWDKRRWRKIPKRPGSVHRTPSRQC

Target: m1 receptors in hippocampus (Rattus norvegicus, UniProt P08482)
Assay: biochemical

CCCCCCOc1nsnc1C1=CCCN(C)C1 [Xanomeline, 3-(4-hexyloxy-1,2,5-thiadiazol-3-yl)-1,2,5,6-tetrahydro-1-methylpyridine]
Ki: 5 nM
